The record followed here is US7855292B2, “Sulfonamide compounds” (Janssen Pharmaceutica NV, priority 2004, dated 2010).

Protein sequences, listed by entry. Tags and fused reporters are not part of them.
UniProt P32238, whole entry: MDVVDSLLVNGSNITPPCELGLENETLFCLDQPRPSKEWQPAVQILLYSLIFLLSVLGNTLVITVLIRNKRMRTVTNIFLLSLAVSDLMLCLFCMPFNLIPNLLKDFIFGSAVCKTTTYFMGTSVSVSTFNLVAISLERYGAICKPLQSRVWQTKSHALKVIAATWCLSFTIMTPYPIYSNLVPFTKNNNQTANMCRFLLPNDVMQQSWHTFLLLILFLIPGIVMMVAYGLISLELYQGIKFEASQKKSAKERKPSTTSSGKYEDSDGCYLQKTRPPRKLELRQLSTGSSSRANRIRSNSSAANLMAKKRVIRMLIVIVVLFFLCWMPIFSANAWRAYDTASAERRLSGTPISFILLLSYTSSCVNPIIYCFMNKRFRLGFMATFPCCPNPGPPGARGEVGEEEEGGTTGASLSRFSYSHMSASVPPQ

Test [1] concerns the target T1, CCK-1 receptor (Homo sapiens, UniProt P32238).
T1 construct: expressed in transfected cells; host or cells: CHO-K1
In words: CCK1 binding assay ([125I]-BH-CCK-8S displacement, CHO-K1 membranes). Particulars: membranes of CHO-K1 cells stably transfected with the CCK-1 receptor; 20 pM [125I]-BH-CCK-8S; 0.3 μM PD-134,308 present; 60 min at 21±3° C. The protocol:
1. CCK1 Assay Development and Data Generation
CHO-K1 cells that had undergone stable transfection with the CCK-1 receptor were grown in DMEM supplemented with L-glutamine (2 mM), penicillin (50 units/mL) and streptomycin (50 μg/mL). Cells were cultured under continuous G418 selection (2 mM) and were harvested using a rubber cell scraper. CHO-K1 cells were sub-cultured a maximum of ten times before being reseeded from the original stocks.
Membranes were prepared from the stably transfected CHO-K1 cells. […]
All assays were conducted in 96-well plates (GF/B millipore filter plates) using buffer A, with 0.3 μM PD-134,308, for the dilutions. […] Total binding of [^125I]-BH-CCK-8S was determined in the presence of 15 μL of buffer A. Non-specific binding of [^125I]-BH-CCK-8S was determined in the presence of 15 μL of 100 μM 2-naphthalenesulphonyl L-aspartyl-(2-phenethyl)amide (2-NAP: see R. A. Hull et al. Br. J. Pharmacol. 1993, 108:734-740), a CCK-1 receptor selective antagonist that is structurally unrelated to the radioligand [^125I]-BH-CCK-8S. […] Bound radioactivity was determined using a gamma counter (count time=1 min). […]
The pKi values were determined using the equation of Y.-C. […]

Test [2] concerns the target T2, CCK2 receptor (Homo sapiens, UniProt P32239).
T2 construct: analyzed for ZFP expression as well as CCK2R induction upon addition of doxycycline to the culture medium; endogenous in cells
T2 sequence (P32239 1-447): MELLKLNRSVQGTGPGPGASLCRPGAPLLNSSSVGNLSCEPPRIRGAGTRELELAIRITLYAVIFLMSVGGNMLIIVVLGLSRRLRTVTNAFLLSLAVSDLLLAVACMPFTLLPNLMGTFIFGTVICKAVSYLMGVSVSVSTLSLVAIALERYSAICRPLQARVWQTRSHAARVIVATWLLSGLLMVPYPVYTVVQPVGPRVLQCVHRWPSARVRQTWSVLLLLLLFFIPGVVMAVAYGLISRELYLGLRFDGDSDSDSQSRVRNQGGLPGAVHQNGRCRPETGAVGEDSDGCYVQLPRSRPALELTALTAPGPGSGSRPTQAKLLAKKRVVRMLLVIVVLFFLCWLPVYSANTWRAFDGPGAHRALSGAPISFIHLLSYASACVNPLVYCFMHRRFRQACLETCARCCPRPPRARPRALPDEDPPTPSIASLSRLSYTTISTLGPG
In words: CCK2 binding assay ([125I]-BH-CCK-8S displacement, HEKZFP membranes). Particulars: membranes of doxycycline-induced HEKZFP cells; 20 pM [125I]-BH-CCK-8S; 60 min at 21±3° C. The protocol: 2. CCK2 Assay Development and Data Generation
Zinc Finger Proteins (ZFP) specific for the CCK2R gene were identified by Sangamo Biosciences. The ZFP domain was fused with the herpes simplex virus VP16 activation domain, and the fusion protein was subsequently cloned into the pcDNA3 mammalian expression vector (Invitrogen, San Diego, Calif.). […] After 2 weeks of selection in culture medium containing […] Zeocin (Invitrogen), sixty drug-resistant stable clones were isolated and analyzed for ZFP expression as well as CCK2R induction upon addition of doxycycline to the culture medium.
HEKZFP cells were grown in DMEM supplemented with L-glutamine (2 mM), penicillin (50 units/mL) and streptomycin (50 μg/mL) and 10% FBS (v/v).
Membranes were prepared from the HEKZFP cells after induction. […] The thawed pellets were homogenized using a Polytron PT-10 (7×1 s). The homogenates were centrifuged for 5 min at 1500 rpm (600×g), and the resulting pellets were discarded. The supernatants were re-centrifuged in order to collect the receptor-membrane pellets (25 min 15,000 rpm; 39,800×g), which were re-suspended in buffer A.
The assay preparation was incubated for 1 h at 21±3° C., and then the assay was terminated by rapid filtration of the preparation under reduced pressure. The loaded filters were washed three times using undiluted PBS (100 μL), and then 100 μL of scintillation fluid was added to the filter plate. Bound radioactivity was determined using a Topcount (Packard BioScience, Meriden, Conn.) with a count time of 1 min. […] To validate the radioligand concentration and incubation time for the assay, saturation and kinetic binding studies were also conducted (see M. F. Morton, The Pharmacological Characterization of Cholecystokinin Receptors in the Human Gastrointestinal Tract. PhD Thesis, University of London, 2000). […] The assay was then terminated according to the procedure outlined above.
3. Data Analysis for CCK1 and CCK2 Binding Assays
The pKi values were determined using the equation of Y.-C.
[formula] […]

On to `O=C(N[C@@H](Cc1ccc(F)c(Br)c1)C(=O)O)c1cc(Cl)c(Cl)cc1NS(=O)(=O)c1cccc2nsnc12` [Example 157, (S)-2-[2-(Benzo[1,2,5]thiadiazole-4-sulfonylamino)-4,5-dichloro-benzoylamino]-3-(3-bromo-4-fluoro-phenyl)-propionic acid], for which, in test [1], the “CCK1 pKi” value came to 6.8.
As for `O=C(N[C@H](Cc1ccc(Cl)c(Cl)c1)C(=O)O)c1ccc(Cl)cc1NS(=O)(=O)c1cccc2nsnc12` [Example 118, (R)-2-[2-(Benzo[1,2,5]thiadiazole-4-sulfonylamino)-4-chloro-benzoylamino]-3-(3,4-dichloro-phenyl)-propionic acid], in test [2], the “CCK2 pKi” value came out at 6.3.
The same measure, in the same setting: the value for `O=C(N[C@@H](Cc1ccc(Cl)c(Cl)c1)C(=O)O)c1ccc(Cl)cc1NS(=O)(=O)c1cccc2nsnc12` [Example 117, (S)-2-[2-(Benzo[1,2,5]thiadiazole-4-sulfonylamino)-4-chloro-benzoylamino]-3-(3,4-dichloro-phenyl)-propionic acid] was 7.8.
In the case of `CC(C)(CNC(=O)c1ccc(Cl)cc1NS(=O)(=O)c1cccc2nsnc12)c1ccc(Cl)cc1` [Example 7, 2-(Benzo[1,2,5]thiadiazole-4-sulfonylamino)-4-chloro-N-[2-(4-chloro-phenyl)-2-methyl-propyl]-benzamide], the “CCK1 pKi” value in test [1] is reported as 7.3. Further, the “CCK2 pKi” value in test [2] came out at 5.1.
